Assay results from US12138309B2, “Topical formulations containing phthalocyanine photosensitizers” (MOLTENI THERAPEUTICS S.R.L., priority 2019, dated 2024).

Columns and labels:
[1] = diethylene glycol monoethyl ether used as solvent
[2] = Distribution of photosensitizer in pig buccal mucosa, cryomicrotome; assay type: in vitro ADME; settings: regardless of the formulation; 30 minutes and 5 hours

With “1,8(11),15(18),22(25)-Tetra[3-(N,N,N-trimethylammonium)phenoxy]zinc phthalocyaninate (II) tetrachloride [RLP068]” the “protection of RLP068/Cl against thermal stress by the solvent” value [1] was “not adequately protective against a thermal stress” and the “accumulation in the first layers of the mucosa (up to 100 μm) compared to MRLP164” value [2] was “accumulates in greater amount in the first layers of the mucosa”.
